Data as given in ChEMBL document CHEMBL1833850, “Thailandepsins: bacterial products with potent histone deacetylase inhibitory activities and broad-spectrum antiproliferative activities” (J Nat Prod, 2011).

Amino acid sequences for entries named in this document (tags omitted). A change or cut given only in a name is not applied to a line headed by its entry.
UniProt O15379: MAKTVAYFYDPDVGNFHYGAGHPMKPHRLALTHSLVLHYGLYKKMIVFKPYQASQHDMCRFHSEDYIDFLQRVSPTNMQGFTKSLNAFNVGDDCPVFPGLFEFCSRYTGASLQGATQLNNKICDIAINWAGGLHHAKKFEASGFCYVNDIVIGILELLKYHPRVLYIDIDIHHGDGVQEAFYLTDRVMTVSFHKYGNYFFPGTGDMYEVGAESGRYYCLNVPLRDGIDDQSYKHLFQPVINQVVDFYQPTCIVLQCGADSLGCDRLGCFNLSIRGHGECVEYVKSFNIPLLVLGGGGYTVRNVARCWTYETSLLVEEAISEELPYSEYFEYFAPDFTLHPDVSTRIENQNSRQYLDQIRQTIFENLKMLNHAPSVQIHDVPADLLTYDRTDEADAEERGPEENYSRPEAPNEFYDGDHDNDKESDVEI

Molecular target: Histone deacetylase 3/Nuclear receptor corepressor 2 (HDAC3/NCoR2) (Homo sapiens, UniProt O15379)
Assay type: protein-complex assay

## CC=C1NC(=O)[C@@H](CS)NC(=O)[C@@H](C(C)C)NC(=O)C[C@@H](/C=C/CCS)OC(=O)[C@H](C(C)C)NC1=O [FR-135313]
  IC50: 5.3 nM
